Data reported in patent publication US20250152585A1, “PHARMACEUTICAL COMPOUND” (Duke Street Bio Limited, priority 2022, published 2025).
Like-named read-outs stand apart in the source and are kept apart here.

Protein sequences, listed by entry. Tags and fused reporters are not part of them.
UniProt P09874, whole entry: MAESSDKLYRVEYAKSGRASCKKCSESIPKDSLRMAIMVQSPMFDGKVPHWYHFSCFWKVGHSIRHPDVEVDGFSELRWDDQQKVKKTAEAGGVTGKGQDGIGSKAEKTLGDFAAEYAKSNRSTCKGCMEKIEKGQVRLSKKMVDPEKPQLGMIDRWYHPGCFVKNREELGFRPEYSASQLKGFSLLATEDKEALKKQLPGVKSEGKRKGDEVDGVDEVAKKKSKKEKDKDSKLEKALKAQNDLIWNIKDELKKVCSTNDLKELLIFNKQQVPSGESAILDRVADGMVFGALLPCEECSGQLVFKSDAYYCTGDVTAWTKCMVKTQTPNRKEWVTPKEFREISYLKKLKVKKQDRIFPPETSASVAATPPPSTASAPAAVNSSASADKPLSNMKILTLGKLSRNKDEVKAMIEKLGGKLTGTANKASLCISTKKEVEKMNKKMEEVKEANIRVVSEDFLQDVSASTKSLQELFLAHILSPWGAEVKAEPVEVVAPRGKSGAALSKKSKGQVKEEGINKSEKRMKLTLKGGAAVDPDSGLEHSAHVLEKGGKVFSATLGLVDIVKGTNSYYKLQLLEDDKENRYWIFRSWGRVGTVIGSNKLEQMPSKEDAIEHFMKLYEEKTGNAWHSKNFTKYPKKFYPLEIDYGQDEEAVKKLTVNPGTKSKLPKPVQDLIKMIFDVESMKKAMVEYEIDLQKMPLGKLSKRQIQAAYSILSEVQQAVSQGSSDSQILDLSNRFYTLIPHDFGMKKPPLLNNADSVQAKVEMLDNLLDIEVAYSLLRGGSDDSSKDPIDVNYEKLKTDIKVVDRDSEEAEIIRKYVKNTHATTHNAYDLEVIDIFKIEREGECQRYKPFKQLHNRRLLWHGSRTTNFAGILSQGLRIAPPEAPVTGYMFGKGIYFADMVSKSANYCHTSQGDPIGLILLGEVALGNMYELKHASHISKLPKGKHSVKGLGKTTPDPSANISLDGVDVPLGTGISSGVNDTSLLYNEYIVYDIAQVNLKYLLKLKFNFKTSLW
UniProt Q9UGN5, whole entry: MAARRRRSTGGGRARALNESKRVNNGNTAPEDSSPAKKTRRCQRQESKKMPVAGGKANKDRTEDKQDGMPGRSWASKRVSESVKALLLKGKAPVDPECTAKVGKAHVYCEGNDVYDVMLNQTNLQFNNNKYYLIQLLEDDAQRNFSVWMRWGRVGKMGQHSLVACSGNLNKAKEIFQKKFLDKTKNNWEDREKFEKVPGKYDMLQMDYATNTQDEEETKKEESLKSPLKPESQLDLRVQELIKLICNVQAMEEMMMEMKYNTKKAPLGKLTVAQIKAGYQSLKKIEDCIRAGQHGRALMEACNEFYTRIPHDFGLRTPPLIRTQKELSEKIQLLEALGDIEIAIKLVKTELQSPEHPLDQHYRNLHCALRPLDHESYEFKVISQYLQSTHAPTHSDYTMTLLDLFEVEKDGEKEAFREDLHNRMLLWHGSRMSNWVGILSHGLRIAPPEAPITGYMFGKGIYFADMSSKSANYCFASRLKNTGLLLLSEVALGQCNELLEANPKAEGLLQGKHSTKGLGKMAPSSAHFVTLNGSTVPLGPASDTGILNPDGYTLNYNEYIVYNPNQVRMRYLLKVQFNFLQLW

Columns and labels:
[1] = target: T1, full length N-terminally FLAG-tagged PARP1 (Homo sapiens, UniProt P09874); assay: PARP1 biochemical DELFIA assay (auto-PARylation); conditions: read-out: PARP1 DELFIA
[2] = target: N-terminally FLAG-tagged PARP2 (amino acids 1-583) (Homo sapiens, UniProt Q9UGN5); assay: PARP2 probe displacement HTRF assay; conditions: read-out: PARP2 HTRF, binned Kd
Procedure: This assay was performed under identical conditions as for PARP1, except that N-terminally FLAG-tagged PARP2 (amino acids 1-583) was used instead of PARP1, and PARP1/2 binding probe was used at 10-fold probe Kd=540 nM. Data analysis was performed identical as for PARP1.

[3] = target: T1, full length N-terminally FLAG-tagged PARP1; assay: PARP1 probe displacement HTRF assay; conditions: for Selectivity: PARP1 over PARP2, ratio Kd (PARP2)/Kd (PARP1); for Kd: read-out: PARP1 HTRF, binned Kd
[4] = binned IC50, biochemical auto-PARylation assay
[5] = binned IC50, PARP1 biochemical DELFIA assay

Compound | IC50 [1, 4] [µM] | Kd ([2]; probe displacement HTRF) [µM] | Selectivity ([3]; probe displacement HTRF) | Kd ([3]; probe displacement HTRF) [µM] | IC50 [1, 5] [µM] | Kd ([2]; PARP2 probe displacement HTRF) [µM] | Kd ([3]; PARP1 probe displacement HTRF) [µM]
CNC(=O)c1ccc(N2CCC(N3CCC(c4cc5c(Cl)cncc5c(=O)[nH]4)C3)CC2)c(F)n1 (single isomer, unassigned) [367a] | < 0.01 | 0.1 to 1 | +++ (+++ indicate a value of at least 100) | < 0.01 | – | – | –
O=C(NCC1COC1)c1ccc(N2CCC(N3CCC(c4nc5ccccc5c(=O)[nH]4)C3)CC2)cn1 (centres unmarked) | < 0.01 | 1 to 10 | +++ (+++ indicate a value of at least 100) | < 0.01 | – | – | –
CC(=O)Nc1ccc(N2CCC(N3CCC(c4cc5ccccc5c(=O)[nH]4)C3)CC2)c(Cl)c1 (single isomer, unassigned) [Compound 273a] | 0.01 to 0.1 | 0.1 to 1 | + (+ indicates a value of 10 to less than 50) | 0.01 to 0.1 | – | – | –
CCc1ccc(C2CCN(C3CCN(c4cnc(C(=O)NC)c(F)c4)CC3)C2)[nH]c1=O (single isomer, unassigned) | 0.01 to 0.1 | 1 to 10 | + (+ indicates a value of 10 to less than 50) | 0.01 to 0.1 | – | – | –
CCc1ccc(C2CCN(C3CCN(c4ccc(C(=O)NC5CC5)nc4F)CC3)C2)[nH]c1=O (single isomer, unassigned) [Compound 353a] | < 0.01 | 0.1 to 1 | +++ (+++ indicate a value of at least 100) | < 0.01 | – | – | –
O=C(NC1CC1)c1ccc(N2CCC(N3CCC(c4cc5cccc(F)c5c(=O)[nH]4)C3)CC2)c(F)n1 (single isomer, unassigned) [350a] | < 0.01 | 0.1 to 1 | +++ (+++ indicate a value of at least 100) | < 0.01 | – | – | –
CNC(=O)c1ccc(N2CCC(N3CC4CC4(c4nc5ccccc5c(=O)[nH]4)C3)CC2)cn1 (single isomer, unassigned) [359a] | 0.01 to 0.1 | 1 to 10 | ++ (++ indicates a value of 50 to less than 100) | 0.01 to 0.1 | – | – | –
CCc1ccc(C2CCN(C3CCN(c4ccc(C#N)cn4)CC3)C2)[nH]c1=O (single isomer, unassigned) [Compound 332b] | 0.1 to 1 | 1 to 10 | + (+ indicates a value of 10 to less than 50) | 0.1 to 1 | – | – | –
CCc1c(F)cc(C2CCN(C3CCN(c4ccc(C(=O)NC)nc4)CC3)C2)[nH]c1=O (centres unmarked) | < 0.01 | 1 to 10 | +++ (+++ indicate a value of at least 100) | < 0.01 | – | – | –
CCc1ccc(C2CCN(C3CCN(c4ccc(C(=O)NC)nc4C#N)CC3)C2)[nH]c1=O (single isomer, unassigned) | < 0.01 | 1 to 10 | +++ (+++ indicate a value of at least 100) | < 0.01 | – | – | –
CNC(=O)c1ccc(N2CCC(N3CCC(c4cc5c(C(F)(F)F)n[nH]c5c(=O)[nH]4)C3)CC2)cn1 (centres unmarked) | 0.1 to 1 | 1 to 10 | − (− indicates a value of less than 10) | 0.1 to 1 | – | – | –
CNC(=O)c1cc(C)c(N2CCC(N3CCC(c4cc5ccc(F)cc5c(=O)[nH]4)C3)CC2)cn1 (single isomer, unassigned) [Compound 202b] | – | – | + (+ indicates a value of 10 to less than 50) | – | 0.01 to 0.1 | 0.1 to 1 | 0.01 to 0.1
CCc1ccc(C2CCN(C3CCN(c4ccc(C(=O)NCC(F)F)nc4)CC3)C2)[nH]c1=O (single isomer, unassigned) [Compound 354b] | 0.01 to 0.1 | 1 to 10 | +++ (+++ indicate a value of at least 100) | 0.01 to 0.1 | – | – | –
CNC(=O)c1cc(C(F)(F)F)c(N2CCC(N3CCC(c4cc5ccc(F)cc5c(=O)[nH]4)C3)CC2)cn1 (single isomer, unassigned) [292a] | 0.01 to 0.1 | 1 to 10 | − (− indicates a value of less than 10) | 0.1 to 1 | – | – | –
CNC(=O)c1cc(C(F)(F)F)c(N2CCC(N3CCC(c4cc5ccc(F)cc5c(=O)[nH]4)C3)CC2)cn1 (single isomer, unassigned) [292b] | < 0.01 | 0.1 to 1 | +++ (+++ indicate a value of at least 100) | < 0.01 | – | – | –
CCc1ccc(C2CCN(C3CCN(c4ccc(C(=O)NC)cc4C#N)CC3)C2)[nH]c1=O (single isomer, unassigned) | 0.1 to 1 | > 10 | + (+ indicates a value of 10 to less than 50) | 0.1 to 1 | – | – | –
CNC(=O)c1ccc(N2CCC(N3CCCC(c4cnc(C)c(=O)[nH]4)C3)CC2)cn1 (centres unmarked) | – | – | + (+ indicates a value of 10 to less than 50) | – | 0.1 to 1 | > 10 | 0.1 to 1
CNC(=O)c1ccc(N2CCC(N3CCC(c4cc5c(c(=O)[nH]4)CCNC5=O)C3)CC2)cn1 (single isomer, unassigned) | 0.01 to 0.1 | > 10 | +++ (+++ indicate a value of at least 100) | 0.01 to 0.1 | – | – | –
CNC(=O)c1cc(F)c(N2CCC(N3CCC(c4cc5cccc(F)c5c(=O)[nH]4)C3)CC2)cn1 (centres unmarked) | < 0.01 | 0.01 to 0.1 | + (+ indicates a value of 10 to less than 50) | < 0.01 | – | – | –
CCc1cc(F)c(C2CCN(C3CCN(c4ccc(C(=O)NC)nc4)CC3)C2)[nH]c1=O (centres unmarked) | < 0.01 | 0.1 to 1 | +++ (+++ indicate a value of at least 100) | < 0.01 | – | – | –
CCc1ccc(C2CCN(C3CCN(c4ccc(C#N)cc4F)CC3)C2)[nH]c1=O (single isomer, unassigned) | < 0.01 | 1 to 10 | +++ (+++ indicate a value of at least 100) | < 0.01 | – | – | –
CNC(=O)c1ccc(N2CCC(N3CC4CC4(c4nc5ccccc5c(=O)[nH]4)C3)CC2)cn1 (single isomer, unassigned) [359b] | 0.01 to 0.1 | > 10 | + (+ indicates a value of 10 to less than 50) | 0.1 to 1 | – | – | –
CNC(=O)c1ccc(N2CCC(N3CCC(c4cc5c(Cl)cncc5c(=O)[nH]4)C3)CC2)c(F)n1 (single isomer, unassigned) [367b] | < 0.01 | 1 to 10 | +++ (+++ indicate a value of at least 100) | < 0.01 | – | – | –
CCc1ccc(C2CCN(C3CCN(c4ccc(C(=O)NC)cc4F)CC3)C2)[nH]c1=O (single isomer, unassigned) [364a] | 0.1 to 1 | > 10 | + (+ indicates a value of 10 to less than 50) | 0.1 to 1 | – | – | –
CCc1ccc(C2CCN(C3CCN(c4cnc(C(=O)NC)nc4)CC3)C2)[nH]c1=O (centres unmarked) | – | – | − (− indicates a value of less than 10) | – | 0.1 to 1 | > 10 | 0.1 to 1
CNC(=O)c1ccc(N2CCC(N3CCCC(c4ccc(C(F)(F)F)c(=O)[nH]4)C3)CC2)cn1 (centres unmarked) | – | – | +++ (+++ indicate a value of at least 100) | – | < 0.01 | 1 to 10 | < 0.01
CC(=O)Nc1ccc(F)cc1N1CCC(N2CCC(c3cc4ccccc4c(=O)[nH]3)C2)CC1 (centres unmarked) | 0.01 to 0.1 | 1 to 10 | + (+ indicates a value of 10 to less than 50) | 0.1 to 1 | – | – | –
CNC(=O)c1ccc(N2CCC(N3CCC(c4cc5cccc(F)c5c(=O)[nH]4)C3)CC2)c(C#N)n1 (single isomer, unassigned) [351b] | < 0.01 | 0.1 to 1 | +++ (+++ indicate a value of at least 100) | < 0.01 | – | – | –
CNC(=O)c1csc(N2CCC(N3CCC(c4cc5ccccc5c(=O)[nH]4)C3)CC2)n1 (single isomer, unassigned) [Compound 274a] | 0.01 to 0.1 | 1 to 10 | + (+ indicates a value of 10 to less than 50) | 0.1 to 1 | – | – | –
